scFv variants of Ab-91 (heavy chain) against a SARS-CoV-2 spike peptide

Reference: Engelhart et al. 2022, doi:10.1038/s41597-022-01779-4. File: FLAb, binding data.

Target peptide (SARS-CoV-2 spike, HR2 region): PDVDLGDISGINAS

Ab-91 is the parent antibody, in scFv form: VL, then a 15-residue (Gly4Ser)3 linker, then VH. The light chain is unchanged in all variants.
VL: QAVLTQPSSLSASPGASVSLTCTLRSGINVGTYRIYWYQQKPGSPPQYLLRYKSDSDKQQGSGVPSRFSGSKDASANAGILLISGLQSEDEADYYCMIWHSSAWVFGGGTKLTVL
VH: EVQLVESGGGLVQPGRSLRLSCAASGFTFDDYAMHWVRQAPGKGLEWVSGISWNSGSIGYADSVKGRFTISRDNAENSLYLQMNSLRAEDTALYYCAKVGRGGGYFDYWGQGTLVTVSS

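Phage display of a naive human antibody library on the peptide gave the parent. AAYL51 was designed without a model: most single CDR substitutions and a random sample of double and triple ones. Affinity was read by AlphaSeq, a pooled yeast mating assay with surface-displayed partners. After mating in shaken culture at 30 °C for 16 h, diploids were selected and their barcode pairs sequenced. Read counts were normalised to the haploid input and turned into Kd by a linear fit to BCL2-family pairs of known affinity, for each replicate. Mating was done three times.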

The parent's heavy chain CDRs are GFTFDDYAMH, GISWNSGSIGYADSVK, VGRGGGYFDY; each variant's own CDRs replace them letter for letter.
Values are log10 of the apparent Kd in nM; lower means stronger binding.
The mean shown is taken over the replicates in which the pair was detected.
"nd" means that the variant was in the library but no mating with the target was seen in that replicate; the authors take this as a sign of poor binding, and no number exists.
Nonspecific signal, from three strains lacking the peptide, appeared in 21% of pairings of library AAYL51, centred on 4.54 (5% of these signals below 3.26); values are not corrected for it. The control count says in how many pairings with the empty strains this scFv gave a signal, with their mean in brackets.
In this assay the parent's reference entry averaged 1.86; its copy inside this library read 0.88.

| # | CDR-H1 | CDR-H2 | CDR-H3 | log10 Kd (nM) by replicate | log10 Kd (nM), mean | signal with controls |
|---|---|---|---|---|---|---|
| 1 | GFTFDDYAMH | GISHNSGSIGYAESVK | VKRGGGYFDY | nd / 4.11 / nd | 4.11 | 1 of 9 (3.60) |
| 2 | GFTSDDYAMH | GISWNSGSIGYADSVK | VWRVGGYFDY | 5.12 / 4.24 / nd | 4.68 | 1 of 9 (5.62) |
| 3 | GFTFDTYAMH | GISWNSGSIGYADSVK | VGRLGGYFDW | 2.81 / 3.53 / 3.11 | 3.15 | 4 of 9 (4.61) |
| 4 | GQTFDDYAMH | GISWNSGYIGWADSVK | VGRGGGYFDY | 5.20 / nd / nd | 5.20 | 0 of 9 |
| 5 | GFTFDDYAMH | GISWNSGSIGYSDSVK | VGRGGGYVDY | 1.00 / 0.51 / 1.81 | 1.11 | 0 of 9 |
| 6 | GFTFDDYAMH | GISWNSGSIGYADMVK | VSRGGGYFYY | 1.10 / 0.93 / 0.61 | 0.88 | 2 of 9 (4.18) |
| 7 | GFTFDDRAMH | GISWNSGSIGYADHVK | YGRGGGYFDY | nd / nd / nd | nd | 0 of 9 |
| 8 | GFWFDDYAMH | GISWNMGSIGYATSVK | VGRGGGYFDY | nd / nd / nd | nd | 0 of 9 |
| 9 | GFTFDDYAMH | GISWNSGSIGYADRVK | VGRGGGYFDG | 0.87 / 0.96 / 0.49 | 0.77 | 3 of 9 (5.05) |
| 10 | SFTFDDYAMH | GISWNSGSIGYADSVK | TGRGGKYFDY | nd / nd / nd | nd | 2 of 9 (4.02) |
| 11 | GDTFDDYAMH | GISWNSLSIGYADSVK | VTRGGGYFDY | 4.42 / 6.15 / 3.20 | 4.59 | 0 of 9 |
| 12 | GFTFDDYCMN | GISWASGSIGYADSVK | VGRGGGYFDY | nd / 3.21 / nd | 3.21 | 0 of 9 |
| 13 | GFTFDDYAMY | GISWNSGSIGYADSVA | VGRGGGYFDS | nd / nd / nd | nd | 4 of 9 (3.63) |
| 14 | GFTFDDYAAH | GGSWNSGSIGYADSVK | VGRGGIYFDY | nd / nd / nd | nd | 1 of 9 (2.12) |
| 15 | GFTFDDYAMH | GISWNSGSIRYADSVK | YGRGGGYFQY | 3.82 / 5.32 / nd | 4.57 | 4 of 9 (3.73) |
| 16 | GFRFDDYAMH | GISWNSGSILYADSVK | VGRGGGYFAY | 4.59 / 6.13 / 5.46 | 5.40 | 7 of 9 (5.32) |
| 17 | GFTFDDYAMH | GISWNSGSIGYADCVK | HGRGDGYFDY | nd / 5.11 / nd | 5.11 | 0 of 9 |
| 18 | GPTFDDYAMH | GISWNSGSIGYKDSVK | VGRGGGYFDY | nd / 5.30 / nd | 5.30 | 1 of 9 (3.21) |
| 19 | DFTFDDYAMH | GISWNKGAIGYADSVK | VGRGGGYFDY | nd / nd / nd | nd | 0 of 9 |
| 20 | GFTFDDYAMH | GIPWNSGSIGYADTVK | VGRGGGYFDE | 4.91 / 5.51 / 5.21 | 5.21 | 2 of 9 (4.83) |
| 21 | GFTFDDYAMH | GISWYSGTIGYRDSVK | VGRGGGYFDY | nd / nd / nd | nd | 0 of 9 |
| 22 | GFTFDDYAMH | GISWNDESIGYADSVK | VLRGGGYFDY | 4.78 / nd / 4.10 | 4.44 | 3 of 9 (4.13) |
| 23 | GFTFDDYAMH | GCSWNSGSIGYALSVK | VGRGGEYFDY | nd / nd / 5.16 | 5.16 | 6 of 9 (5.24) |
| 24 | LFTFDDYAMH | VISWNSGSIGYADSVK | VGRGDGYFDY | nd / nd / nd | nd | 0 of 9 |
| 25 | GFTFDDYAMH | GISWNSGSIGYWDKVK | VGRGGGLFDY | nd / nd / nd | nd | 3 of 9 (4.38) |
| 26 | GFTFDDYAGR | GISWNSGSIGYADSVK | VGRGGGYFDV | 4.67 / nd / nd | 4.67 | 3 of 9 (4.89) |
| 27 | GFTFDDYAMH | GISWNSGSVGYADSVG | VGRGGGYFDY | nd / nd / nd | nd | 1 of 9 (5.16) |
| 28 | GFTFDDYAMH | GISWNTGSIGYADSVW | VGRGGGYFDY | 4.96 / nd / nd | 4.96 | 0 of 9 |
| 29 | GFTFDDYAMH | GCSWNSGSIGYADSVK | NGRGGGYFDY | nd / nd / 5.51 | 5.51 | 1 of 9 (5.82) |
| 30 | GFTMDDYAMH | GISWNSGSIGYADSVK | VGRIDGYFDY | 4.77 / nd / 5.51 | 5.14 | 6 of 9 (5.16) |
| 31 | GFTFDDYAMH | GISGNSGSIGYADSVC | VGRGGGYFDY | 2.47 / 2.53 / 2.27 | 2.42 | 3 of 9 (4.99) |
| 32 | GFTFDDYSMH | GISWNSGSIGYADSVK | VGRRGGNFDY | nd / 3.65 / nd | 3.65 | 2 of 9 (4.97) |
| 33 | GFTFDDYAMH | GISWNSGSIPCADSVK | VGRGGGYFAY | nd / 4.24 / nd | 4.24 | 1 of 9 (3.93) |
| 34 | GFTADDYAMH | GISWNSGSIGYADSFK | VGRGGGYFDY | nd / nd / nd | nd | 0 of 9 |

From the list, the first 2 with no signal in any replicate:

| CDR-H1 | CDR-H2 | CDR-H3 | log10 Kd (nM) by replicate | log10 Kd (nM), mean | signal with controls |
|---|---|---|---|---|---|
| GFTFDDRAMH | GISWNSGSIGYADHVK | YGRGGGYFDY | nd / nd / nd | nd | 0 of 9 |
| GFWFDDYAMH | GISWNMGSIGYATSVK | VGRGGGYFDY | nd / nd / nd | nd | 0 of 9 |